Test system: Collagen I (COL1A1) in LX-2 cells
Test: Collagen and Alpha-SMA in LX-2 (Western blot after TGF-β stimulation);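 also: cells serum-starved in 0.4% FBS before treatment, lysates analysed by Western blot, DMSO-only wells as blank and TGF-β alone as maximal induction control, three independent experiments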
Format: cell-based
Conditions: Homo sapiens, 4 ng/ml TGF-β for 48 hours, Collagen I normalized to GAPDH

## CC(C)n1cnc(-c2ccc(F)cc2)c1-c1nc(C(=O)Nc2ccc(N3CCN(C)CC3)cc2)c[nH]1 [Compound 112, 5′-(4-fluorophenyl)-3′-isopropyl-N-(4-(4-methylpiperazin-1-yl)phenyl)-1H,3′H-[2,4′-biimidazole]-4-carboxamide]
  IC50: < 0.1 nM

— US11530197B2, “Analogs for the treatment of disease” (Insilico Medicine IP Limited, priority 2021, dated 2022)
